{
  "source": "patent US6405626B1",
  "about": "“Decontaminating and dispersion suppressing foam formulation” (dated 2002)",
  "assay": "Precipitation of oxidizing agent on standing",
  "data": [
    {"smiles": "O=c1[nH]c(=O)n(Cl)c(=O)n1Cl.[Na]", "values": [
      {"measurement": "concentration above which signs of precipitation appear on standing", "value": "above 2%"}
    ]}
  ]
}
